Test results: patent US20260250269A1, “APOPTOSIS INHIBITOR SALTS FOR CANCER” (priority 2022, published 2026)

Experiments:
[1] = Preliminary photostability study of monobromide (D65 light, 1000 lux); assay type: physicochemical; set-up: key to Thermal behavior / UV / IR / XRPD pattern: a: Conforms to the reference; b: Conforms to Typical DSC/TGA curves as the reference standard; NC: No change
Method: Degradation occurred after 2 months of light exposure (D65 light, 1000 lux, 25° C./60% RH) for the monobromide, as evidenced by a color change from yellow to yellowish brown and a slight increase in HPLC peak areas, attributed to degradation products (Table 17).

[2] = Body weight in SU-DHL-10 xenografted mice; settings: for Mean Body Weight ± SEM: Group 2: 1.6 mg/kg/day continuous i.v. infusion Day 0-21
[3] = tested on: SU-DHL-10 human diffuse large B cell lymphoma xenograft; assay: Anti-tumor activity against SU-DHL-10 xenograft; assay type: in vivo, BALB/c nude mice
Method: For the monobromide continuous i.v. infusion group, the monobromide was dissolved with physiological saline to prepare 12.12 mg/mL clear solution.
For the monobromide i.p. injection group, the monobromide was dissolved with physiological saline to prepare 0.41 mg/mL clear solution. The dose volume was determined by the mice′ body weight collected on the morning of dosing day, calculated by the formula: dose volume (10 mL/kg)×body weight.
For the pamoate i.m. injection group, the pamoate salt was mixed with appropriate volume of vehicle solution (0.5% CMC-Na (viscosity 400-800 cps, CAS No. 9004-32-4), 0.2% Tween-80 in 10 mM pH 7.4 PBS saline) to get a uniform suspension after 15 min sonication, with final concentration of 5.6 mg/mL, similar to the procedure described in Example 14. The dose volume was determined by the mice′ body weight collected on the morning of dosing day, calculated by the formula: dose volume (2 mL/kg)×body weight.
Human diffuse large B cell lymphoma cell line SU-DHL-10 was obtained from Cobioer Biotechnology Co., Ltd (China). The cells were cultured at 37° C. with 5% CO2 in RPMI-1640 (Hyclone, USA) supplemented with 10% heat inactivated fetal bovine serum (Gibco, USA) and 1% GlutaMAX (Gibco, USA). The cells were collected, suspended in PBS at 2×10^8 cells/mL, and then mixed with the equivalent volume of Matrigel® Basement Membrane Matrix (Corning, USA).
Six-week-old female BALB/c-nude mice were purchased from SPF Biotechnology Co., Ltd. (Beijing, China). They were maintained on a standard diet and water throughout the experiments under specific pathogen-free conditions. The cells were cultured in vitro and 0.1×10^8 cells/0.1 mL/mouse were grafted subcutaneously into the flank of NOD-SCID (NVSG) mice (Beijing Viewsolid Biotech Co. LTD), 6-week-old. When the tumor reached about 1 cm in diameter, tumor-bearing mice were sacrificed and tumors were removed and sliced into small fragments (approximately 3×3×3 mm^3/fragment) and re-inoculated into BALB/c nude mice. The mice with a tumor volume (length×width^2×0.5) of 99.28 to 247.10 mm^3 were divided into four groups randomly, using Study Director Software (Studylog Systems, Inc, Version 3.1.399.22, USA) to minimize intragroup and intergroup tumor volume variation.
The first day of administration was designated day 0, and observation continued until day 35. Each group was treated as follows (Table 15).
The vehicle control group received i.m. injection of vehicle solution on day 0, 7 and 14 (Group 1). For 21-day continuous i.v. infusion, an osmotic pump containing the monobromide was implanted in the dorsum of each animal while under anesthesia on day 0, with daily dose of […], approximately 1.6 mg/kg/day (Group 2). The monobromide i.p. injection group was administrated referring to FIVE-DAY-ON, TWO-DAY-OFF procedure on day 0-4, 7-11 and 14-18 (Group 3) per Minoda et. al, Antitumor effect of YM155, a novel small-molecule survivin suppressant, via mitochondrial apoptosis in human MFH/UPS, International Journal of Oncology, 2015, 47:891-899. For the pamoate i.m. injection group, drug suspension was administrated once per week at 11.2 mg/kg, approximately 7 times daily dosage of the monobromide i.v. infusion group, on day 0, 7 and 14 (Group 4).

[4] = Photostability test (ICH Option 1, ID65 light)
[5] = D65 light, 1000 lux, 25° C./60% relative humidity, Storage Period 1 (months)
[6] = D65 light, 1000 lux, 25° C./60% relative humidity, Storage Period 2 (months)
[7] = Group 2: 1.6 mg/kg/day continuous i.v. infusion Day 0-21, Day 21
[8] = Group 2: 1.6 mg/kg/day continuous i.v. infusion Day 0-21, Day 35
[9] = Group 3: 4.1 mg/kg i.p. day 0-4, 7-11, 14-18, Day 21
[10] = Group 3: 4.1 mg/kg i.p. day 0-4, 7-11, 14-18, Day 35
[11] = ID65 light, 250 W/m^2, 25° C./60% RH (ICH Option 1), 26.2 hours
[12] = ID65 light, 250 W/m^2, 25° C./60% RH (ICH Option 1), 26.2 hours, listed as Monobromide
[13] = Initial, irradiation time 0 hours

## 1-(2-methoxyethyl)-2-methyl-4,9-dioxo-3-(pyrazin-2-ylmethyl)-4,9-dihydro-1H-naphtho[2,3-d]imidazolium bromide [monobromide]
[1]; [5]
  Assay (%) HPLC: 100.0%
  Assay (%) Titration: 100.2%
  Description: Yellowish
  IR: NC
  Related Substances (HPLC, %) Each max: 0.13%
  Related Substances (HPLC, %) Total: 0.22%
  Thermal behavior: NC
  UV: NC
  Water content (%): 0.06%
  XRPD pattern: NC
[1]; [6]
  Assay (%) HPLC: 99.5%
  Assay (%) Titration: 100.1%
  Description: Yellowish
  IR: NC
  Related Substances (HPLC, %) Each max: 0.19%
  Related Substances (HPLC, %) Total: 0.49%
  Thermal behavior: NC
  UV: NC
  Water content (%): 0.07%
  XRPD pattern: NC
[1]; Initial, Storage Period 0
  Assay (%) HPLC: 100.9%
  Assay (%) Titration: 100.0%
  Description: Yellow
  IR: a
  Related Substances (HPLC, %) Each max: 0.08%
  Related Substances (HPLC, %) Total: 0.08%
  Thermal behavior: b
  UV: a
  Water content (%): 0.05%
  XRPD pattern: a
[1]; preliminary study, D65 light, 1000 lux, 25° C./60% RH, 2 months
  Photostability (in words): photo-unstable
[2]; Day 21
  Mean Body Weight ± SEM: 22.07 ± 0.66 g
[2]; Day 35
  Mean Body Weight ± SEM: 22.42 ± 0.57 g
[2]; each group (Groups 2-4), until day 35
  Body weight decrease (in words): no statistically significant decrease in body weight
[3]; Group 2: 1.6 mg/kg/day continuous i.v. infusion Day 0-21, Day 0
  Mean Tumor Volume ± SEM: 155.72 ± 14.71 mm^3
[3]; Group 2: 1.6 mg/kg/day continuous i.v. infusion Day 0-21, Day 7
  Mean Tumor Volume ± SEM: 0.00 ± 0.00 mm^3
[3]; [7]
  Antitumor Activity, percent inhibition of tumor growth (% inh): 118.81%
  Antitumor Activity, percent regression of the tumor (% reg): 100%
  Mean Tumor Volume ± SEM: 0.00 ± 0.00 mm^3
[3]; Group 2: 1.6 mg/kg/day continuous i.v. infusion Day 0-21, Day 28
  Mean Tumor Volume ± SEM: 0.00 ± 0.00 mm^3
[3]; [8]
  Antitumor Activity, percent inhibition of tumor growth (% inh): 107.67%
  Antitumor Activity, percent regression of the tumor (% reg): 80.31%
  Number of CRs (complete response): 3/6
[3]; Group 3: 4.1 mg/kg i.p. day 0-4, 7-11, 14-18, Day 0
  Mean Tumor Volume ± SEM: 156.93 ± 15.69 mm^3
[3]; Group 3: 4.1 mg/kg i.p. day 0-4, 7-11, 14-18, Day 7
  Mean Tumor Volume ± SEM: 5.20 ± 3.29 mm^3
[3]; [9]
  Antitumor Activity, percent inhibition of tumor growth (% inh): 118.96%
  Antitumor Activity, percent regression of the tumor (% reg): 100%
  Mean Tumor Volume ± SEM: 0.00 ± 0.00 mm^3
[3]; [10]
  Antitumor Activity, percent inhibition of tumor growth (% inh): 76.78%
  Antitumor Activity, percent regression of the tumor (% reg): −241.38%
  Number of CRs (complete response): 0/6
[4]; ICH Option 1 irradiation, 26.2 hours
  Photostability (in words): severe photodegradation
[4]; [11]
  Description: dark purple crystalline powder
  Purity % (HPLC): 93.61%
  XRPD: no significant change
[4]; [12]
  Description: Dark Purple
  XRPD: Consistent
[4]; [13]
  Description: Yellow
  Purity % (HPLC): 99.81%
[4]; after ICH Option 1 irradiation, 26.2 hours
  Reduction of HPLC purity: 6.2%
